## Measured affinities in a library of Ab-14 heavy chain variants

From the AlphaSeq antibody data of Li et al. 2023 (doi:10.1038/s41467-023-39022-2), copy in the FLAb collection.

Target: peptide PDVDLGDISGINAS, taken from heptad repeat 2 (HR2) of SARS-CoV-2 spike.

The variants keep the light chain, the linker and the frameworks of Ab-14 (scFv order VH, a (GGGGS)3 linker, VL).
VH: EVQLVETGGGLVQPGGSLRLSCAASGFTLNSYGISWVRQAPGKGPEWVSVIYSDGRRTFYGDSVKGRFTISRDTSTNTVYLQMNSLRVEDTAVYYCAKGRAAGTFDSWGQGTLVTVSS
VL: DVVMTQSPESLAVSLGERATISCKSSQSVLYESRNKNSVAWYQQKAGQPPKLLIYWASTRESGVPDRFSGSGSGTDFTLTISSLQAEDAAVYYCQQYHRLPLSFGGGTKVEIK

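The starting antibody came from a phage panning campaign against this peptide. These sequences belong to a second round, designed from the earlier measurements on random variants of the parent. Group labels follow the data file (Ctrl: baseline library sampled from a position-specific scoring matrix, with some repeated check sequences; Rand: our label for a block that the file lists under HC and that is probably the random mutants of the ten best first-round binders; En: ensemble of fine-tuned language models; GP: Gaussian process model; GPLM: also part of the Gaussian process libraries; HC: hill climbing; Gen: genetic algorithm; Gibbs: Gibbs sampling; a sequence that several methods proposed may carry one label only). AlphaSeq pools MATa yeast showing the antibodies with MATalpha yeast showing the peptide. After mating in shaken culture at 30 °C for 16 h, diploids were selected and their barcode pairs sequenced. The ratio of observed to expected reads was calibrated, replicate by replicate, on BCL2-family standards whose Kd was known from biolayer interferometry. There are six technical replicates.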

Each variant is given by its three heavy chain CDRs, as the data file delimits them; those of the parent are GFTLNSYGIS, VIYSDGRRTFYGDSVK, GRAAGTFDS. Numbers give log10(Kd / nM), so 0 is 1 nM and 3 is 1 µM. Smaller is tighter. The mean shown is taken over the replicates in which the pair was detected. Where no diploid with the target was found in any replicate, the entry reads "not detected": below detection, most likely a poor binder, though not proof of it. Entries are sorted by rising average, undetected variants last. Values of this round are not directly comparable with the first-round values of the same sequences.

{"CDR-H1": "GFDLDEYGIS", "CDR-H2": "VIYADGMRTAYTDSVK", "CDR-H3": "GNEAGTFDV", "group": "En_Gen", "mean, log10 nM": "-0.71", "replicates with signal": "6 of 6", "signal with controls": "0 of 18"}
{"CDR-H1": "GFDLNEYGIS", "CDR-H2": "VIYADGMRTAYTDSVK", "CDR-H3": "GNNAGTFDM", "group": "En_Gen", "mean, log10 nM": "-0.59", "replicates with signal": "6 of 6", "signal with controls": "0 of 18"}
{"CDR-H1": "GFDLDEYGIS", "CDR-H2": "VIYADGMRTFYADSVK", "CDR-H3": "GENAGTFDM", "group": "En_Gen", "mean, log10 nM": "-0.31", "replicates with signal": "6 of 6", "signal with controls": "0 of 18"}
{"CDR-H1": "GFTLNEYGIS", "CDR-H2": "VIYSDGRRTFYGDSVK", "CDR-H3": "GQTAGTFDA", "group": "GP_Gen", "mean, log10 nM": "-0.20", "replicates with signal": "6 of 6", "signal with controls": "0 of 18"}
{"CDR-H1": "GFDLEDYGIS", "CDR-H2": "VIYADGQRTAYADSVK", "CDR-H3": "GNVAGTFDT", "group": "En_Gen", "mean, log10 nM": "-0.17", "replicates with signal": "6 of 6", "signal with controls": "0 of 18"}
{"CDR-H1": "GFDLNSYGIS", "CDR-H2": "VIYSDGRRTFYADSVK", "CDR-H3": "GKEAGTFDS", "group": "GP_Gen", "mean, log10 nM": "-0.16", "replicates with signal": "6 of 6", "signal with controls": "0 of 18"}
{"CDR-H1": "GFDLNSYGIS", "CDR-H2": "VIYSDGRRTAYGDSVK", "CDR-H3": "GRVAGTFDS", "group": "GP_Gen", "mean, log10 nM": "-0.04", "replicates with signal": "6 of 6", "signal with controls": "0 of 18"}
{"CDR-H1": "GFDLNSYGIS", "CDR-H2": "VIYSDGRRTFYGDHVK", "CDR-H3": "GKTAGTFDS", "group": "GP_Gen", "mean, log10 nM": "0.38", "replicates with signal": "6 of 6", "signal with controls": "0 of 18"}
{"CDR-H1": "GFTLNSQGIS", "CDR-H2": "VIYSDGRRTFYHDSVK", "CDR-H3": "GMPAGTFDS", "group": "Ctrl", "mean, log10 nM": "0.44", "replicates with signal": "6 of 6", "signal with controls": "0 of 18"}
{"CDR-H1": "GFNLNSYGIS", "CDR-H2": "VIYSDGRRTFYGDNVK", "CDR-H3": "GQEAGTFDS", "group": "GP_Gibbs", "mean, log10 nM": "0.57", "replicates with signal": "6 of 6", "signal with controls": "0 of 18"}
{"CDR-H1": "GFTLNSYGIS", "CDR-H2": "VIYADGRRTFYGDRVK", "CDR-H3": "GQAAGTFDL", "group": "GP_Gen", "mean, log10 nM": "0.71", "replicates with signal": "6 of 6", "signal with controls": "0 of 18"}
{"CDR-H1": "GFDLNSYGIS", "CDR-H2": "VIYSDGRRTFYADSVK", "CDR-H3": "GEAAGTFDS", "group": "GPLM_Gen", "mean, log10 nM": "0.75", "replicates with signal": "6 of 6", "signal with controls": "0 of 18"}
{"CDR-H1": "GFNLNSYGIS", "CDR-H2": "VIYSDGRRTFYADKVK", "CDR-H3": "GRTAGTFDS", "group": "GP_Gen", "mean, log10 nM": "0.77", "replicates with signal": "5 of 6", "signal with controls": "0 of 18"}
{"CDR-H1": "GFTLNDYGIS", "CDR-H2": "VIYSDGQRTFYIDSVK", "CDR-H3": "GRAAGTFDS", "group": "GP_HC", "mean, log10 nM": "0.89", "replicates with signal": "5 of 6", "signal with controls": "1 of 18"}
{"CDR-H1": "GFHLQSYGIS", "CDR-H2": "VIYSDGRRTFYGDSVK", "CDR-H3": "GRAAGTFDS", "group": "Ctrl", "mean, log10 nM": "1.00", "replicates with signal": "6 of 6", "signal with controls": "0 of 18"}
{"CDR-H1": "GFELNSYGIS", "CDR-H2": "VIYSDGRRTFYGDSVK", "CDR-H3": "GRVAGTFDT", "group": "GPLM_Gen", "mean, log10 nM": "1.78", "replicates with signal": "6 of 6", "signal with controls": "0 of 18"}
{"CDR-H1": "GFTLNSYGIS", "CDR-H2": "VCYSDGRATFYSDSVK", "CDR-H3": "YRAGGTFDS", "group": "Rand", "mean, log10 nM": "1.94", "replicates with signal": "1 of 6", "signal with controls": "1 of 18"}
{"CDR-H1": "GFTLNSYGIS", "CDR-H2": "VIYSDGERTFYSDSVK", "CDR-H3": "GRAAGTFDS", "group": "GP_HC", "mean, log10 nM": "2.19", "replicates with signal": "4 of 6", "signal with controls": "0 of 18"}
{"CDR-H1": "GFTLNSYGIS", "CDR-H2": "VIYSDGRRTFYGDSVK", "CDR-H3": "GRAMGTFDS", "group": "Ctrl", "mean, log10 nM": "not detected", "replicates with signal": "0 of 6", "signal with controls": "0 of 18"}
{"CDR-H1": "GYDLVEYGIS", "CDR-H2": "VIYADGQRTAYADDVK", "CDR-H3": "GNHGGTIDV", "group": "En_Gibbs", "mean, log10 nM": "not detected", "replicates with signal": "0 of 6", "signal with controls": "2 of 18"}
{"CDR-H1": "GPSLDEYGIS", "CDR-H2": "VIYADGMRTAYTDSVK", "CDR-H3": "GLFAATFVD", "group": "En_Gibbs", "mean, log10 nM": "not detected", "replicates with signal": "0 of 6", "signal with controls": "0 of 18"}
{"CDR-H1": "GFTLNQYGIS", "CDR-H2": "VEYSDGWRTFYGDSVK", "CDR-H3": "GQAAKTFDL", "group": "Ctrl", "mean, log10 nM": "not detected", "replicates with signal": "0 of 6", "signal with controls": "0 of 18"}
{"CDR-H1": "GFNIDEYGIS", "CDR-H2": "VIYADGARTAYADKVK", "CDR-H3": "GFNWNLSVN", "group": "En_Gibbs", "mean, log10 nM": "not detected", "replicates with signal": "0 of 6", "signal with controls": "0 of 18"}
{"CDR-H1": "GFTLNSYGIS", "CDR-H2": "VIYSDGRRTHYGDSVK", "CDR-H3": "CKEAGTNTS", "group": "Ctrl", "mean, log10 nM": "not detected", "replicates with signal": "0 of 6", "signal with controls": "0 of 18"}
{"CDR-H1": "GFDLNEYGIS", "CDR-H2": "VIYADGQRVSYAQNVK", "CDR-H3": "GLVGKLGVV", "group": "En_Gibbs", "mean, log10 nM": "not detected", "replicates with signal": "0 of 6", "signal with controls": "0 of 18"}
{"CDR-H1": "GFDLNEYGIS", "CDR-H2": "VIYADGRRTAYIDSVK", "CDR-H3": "GDAAGTFDV", "group": "En_HC", "mean, log10 nM": "not detected", "replicates with signal": "0 of 6", "signal with controls": "0 of 18"}
{"CDR-H1": "GFELNSYGIS", "CDR-H2": "VIYSDGRRTFYIDSVK", "CDR-H3": "GREAGTFDS", "group": "GP_Gen", "mean, log10 nM": "not detected", "replicates with signal": "0 of 6", "signal with controls": "0 of 18"}
{"CDR-H1": "GFDLNEYGIS", "CDR-H2": "VIYADGRRTAYSDSVK", "CDR-H3": "GEAAGFFDE", "group": "En_HC", "mean, log10 nM": "not detected", "replicates with signal": "0 of 6", "signal with controls": "1 of 18"}

Repeated from above, the 2 best binders with a signal in all replicates:

{"CDR-H1": "GFDLDEYGIS", "CDR-H2": "VIYADGMRTAYTDSVK", "CDR-H3": "GNEAGTFDV", "group": "En_Gen", "mean, log10 nM": "-0.71", "replicates with signal": "6 of 6", "signal with controls": "0 of 18"}
{"CDR-H1": "GFDLNEYGIS", "CDR-H2": "VIYADGMRTAYTDSVK", "CDR-H3": "GNNAGTFDM", "group": "En_Gen", "mean, log10 nM": "-0.59", "replicates with signal": "6 of 6", "signal with controls": "0 of 18"}

Background: pairings of all heavy chain designs with three empty control strains gave a value in 1% of cases (median 2.08, 5th percentile 0.84). Values in that range, when seen in few replicates, are hard to tell from nonspecific mating. The control count says in how many pairings with the empty strains this scFv gave a signal. In the paper, a design with two or fewer of six values counts as a poor binder. The parent sequence was in this pool as ten entries: three were never detected, three once, and four in most replicates, with averages from 0.34 to 2.37.